# Antibody variant affinities, Ab-14 heavy chain, assay 1

Values reported by Engelhart et al. 2022, doi:10.1038/s41597-022-01779-4 (FLAb copy).

Target peptide (SARS-CoV-2 spike, HR2 region): PDVDLGDISGINAS

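The parent was found by panning a naive human phage display library on the peptide. AAYL49 was designed without a model: most single CDR substitutions and a random sample of double and triple ones. The assay is AlphaSeq: two haploid yeast populations carry antibody and antigen on their surface. After mating in shaken culture at 30 °C for 16 h, diploids were selected and their barcode pairs sequenced. Each replicate has its own calibration line, from reference interactions of the BCL2 family. Each pool was mated in three replicate cultures.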

The variants keep the light chain, the linker and the frameworks of Ab-14 (scFv order VH, the linker GGGGSGGGGSGGGGS, VL).
VH: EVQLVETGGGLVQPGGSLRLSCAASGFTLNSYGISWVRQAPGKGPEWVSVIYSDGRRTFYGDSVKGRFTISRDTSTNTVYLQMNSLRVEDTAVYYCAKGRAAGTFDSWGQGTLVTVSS
VL: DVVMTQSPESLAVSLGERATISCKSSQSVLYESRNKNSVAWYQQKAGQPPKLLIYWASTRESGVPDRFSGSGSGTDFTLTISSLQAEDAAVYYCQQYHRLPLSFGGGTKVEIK

Changes read parent residue, position, new residue, counted from the first residue of the VH shown.
Every variant below is changed at T104 of the VH (sequential numbering).
Scale: log10 of Kd in nM, estimated from mating counts; low values are strong binders.
A mean of the replicates is given; it leaves out those without a signal.
An entry "nd" has no value in the source: the pair was not observed among the diploids in any replicate. This suggests poor binding but is not conclusive.
Entries are sorted by rising average, undetected variants last.

Variant F59G G61K T104N showed 0.76 (3 of 3 replicates; controls 3 of 9). Variant T104K showed 1.17 (3 of 3 replicates; controls 0 of 9). With G61A G99Q T104V the result was 1.17 (3 of 3 replicates; controls 3 of 9). Variant A101N A102T T104Y gave 1.21 (3 of 3 replicates; controls 0 of 9). Variant F59S T104E D106K gave 1.24 (3 of 3 replicates; controls 4 of 9). With N30L S31A T104M the result was 1.81 (3 of 3 replicates; controls 3 of 9).

Variant G61V K65W T104L gave 2.21 (3 of 3 replicates; controls 1 of 9). For T28H I34F T104M, the assay gave 2.25 (3 of 3 replicates; controls 2 of 9). Variant F27E G103N T104I showed 2.38 (1 of 3 replicates; controls 2 of 9). Variant G26A G99H T104A gave 2.45 (1 of 3 replicates; controls 1 of 9). For T28L G33E T104Q, the assay gave 2.91 (1 of 3 replicates; controls 1 of 9). Variant I51K T104F showed 2.91 (1 of 3 replicates; controls 2 of 9).

For G99D R100G T104C, the assay gave 2.95 (1 of 3 replicates; controls 0 of 9). Variant G33E I51Q T104W showed 3.03 (2 of 3 replicates; controls 1 of 9). Variant D54G T104Y D106A gave 3.18 (1 of 3 replicates; controls 1 of 9). Variant S63D T104Y S107R showed 3.33 (2 of 3 replicates; controls 1 of 9). Variant F59P G61V T104H gave 3.34 (2 of 3 replicates; controls 1 of 9). With G33R A101F T104R the result was 3.47 (1 of 3 replicates; controls 0 of 9).

With L29E I51E T104C the result was 3.48 (1 of 3 replicates; controls 1 of 9). Variant N30I T104R showed 3.52 (1 of 3 replicates; controls 5 of 9). With L29Q T104P the result was 3.74 (2 of 3 replicates; controls 4 of 9). Variant R56H T104R S107T showed 3.85 (1 of 3 replicates; controls 1 of 9). Variant S35Q D54W T104E showed 3.98 (2 of 3 replicates; controls 0 of 9). With I51N V64C T104M the result was 4.05 (1 of 3 replicates; controls 3 of 9).

With T104P the result was 4.17 (1 of 3 replicates; controls 0 of 9). With S35P G61L T104A the result was 4.22 (2 of 3 replicates; controls 2 of 9). Variant G55E T104N F105S gave 4.38 (2 of 3 replicates; controls 4 of 9). Variant N30M T104R F105L showed 4.74 (2 of 3 replicates; controls 1 of 9). Variant S53R D54F T104N showed 4.83 (1 of 3 replicates; controls 1 of 9). Variant N30P R56M T104M showed 4.95 (2 of 3 replicates; controls 2 of 9).

Variant R56T S63Y T104A showed 5.49 (1 of 3 replicates; controls 0 of 9). Variant G55Q A101T T104W showed 6.05 (1 of 3 replicates; controls 1 of 9). Variant S63C T104V gave nd (0 of 3 replicates; controls 0 of 9). Variant L29M G99H T104V gave nd (0 of 3 replicates; controls 0 of 9). With I34G T104N S107D the result was nd (0 of 3 replicates; controls 0 of 9). For G26Y V64M T104I, the assay gave nd (0 of 3 replicates; controls 0 of 9).

With T28R T104E S107W the result was nd (0 of 3 replicates; controls 1 of 9). With V50G T104H S107Y the result was nd (0 of 3 replicates; controls 3 of 9). With V50W A101T T104E the result was nd (0 of 3 replicates; controls 0 of 9). With T104K F105R the result was nd (0 of 3 replicates; controls 1 of 9). Variant G26A Y32R T104D showed nd (0 of 3 replicates; controls 4 of 9). Variant D54I G103P T104V showed nd (0 of 3 replicates; controls 4 of 9).

With A101M T104E F105D the result was nd (0 of 3 replicates; controls 0 of 9). Variant Y32D S53R T104F showed nd (0 of 3 replicates; controls 1 of 9). Variant G55S G103T T104G gave nd (0 of 3 replicates; controls 0 of 9). For R57C G99V T104S, the assay gave nd (0 of 3 replicates; controls 2 of 9). With F27A L29H T104K the result was nd (0 of 3 replicates; controls 0 of 9). For R57C T104Y D106L, the assay gave nd (0 of 3 replicates; controls 0 of 9).

For Y32D T104F, the assay gave nd (0 of 3 replicates; controls 0 of 9). With I34S R100G T104G the result was nd (0 of 3 replicates; controls 0 of 9). With Y52R R57C T104F the result was nd (0 of 3 replicates; controls 0 of 9).

Nonspecific signal, from three strains lacking the peptide, appeared in 15% of pairings of library AAYL49, centred on 4.06 (5% of these signals below 2.83); values are not corrected for it. The control count says in how many pairings with the empty strains this scFv gave a signal.